# Experiments:
# 107 antibody = test: FACS of antibody binding to peptides pulsed onto DQ2.5+ Raji cells, 107 antibody; assay type: cell-based; conditions: 50 μM peptide pulsed onto human DQ2.5+ Raji cells
# Description: (§1) Assessment of antibody binding to the A0A0E3SZN6_TRIUA epitope candidate. […] The indicated peptides (50 μM) were pulsed onto human DQ2.5*Raji cells and antibody binding was tested in FACS as described (B).
# (§2) Assessment of antibody binding to the physiological relevant forms of the A0A0E3SZN6_TRIUA epitope candidate. The T. urartuA0A0E3SZN6_TRIUA (A) and T. aestivum Q9M4L6_WHEAT (B) sequences were in silico digested with tryspin and chymotrypsin, and the relevant digested fragments shown underlined (A and B). […] The known P positions are indicated (C). The indicated peptides were pulsed (50 μM) onto human DQ2.5*Raji cells and antibody binding was tested in FACS as described (D).
# (§3) To identify putative gliadin-derived sequences different from, but with similarity to, the 30 DOQ.2.5-glia-α1a epitope (PFPQP{right arrow over (E)}LPY (SEQ ID NO:4)), the UniProtKB protein database was searched using the ScanProsite tool (https://prosite.expasyorg/scanprosite/). […] More specifically, we fixed the proline (P) in p1, the glutamine (Q) in p6, the tyrosine (Y) in p9, and P was disallowed in the position p10 after the p9 Y (underlined). To focus the output of the searches, we restricted the output to the Triticum taxonomic group. […] In some cases, Q residues were exchanged with glutamate (E) in the peptide synthesis in order to mimic positional deamidation.
# 4.7C antibody = test: FACS of antibody binding to peptides pulsed onto DQ2.5+ Raji cells, 4.7C antibody; assay type: cell-based; conditions: 50 μM peptide pulsed onto human DQ2.5+ Raji cells
# Description: as §1, §2, §3
sequence,measurement,setting,value
"QLQPFPQPELPY (SEQ ID NO:53) [DQ2.5-glia-α1a, reference compound]",binding of 107 antibody to peptide-pulsed Raji cells (FACS),107 antibody,low level binding
same,binding of 4.7C antibody to peptide-pulsed Raji cells (FACS),4.7C antibody,low level binding
